Reference: publication PMC10539329, “NLRP6 potentiates PI3K/AKT signalling by promoting autophagic degradation of p85α to drive tumorigenesis” (Nature Communications, 2023)

Target: T1, recombinant NLRP6 (Homo sapiens, UniProt P59044)
T1 construct: DNA encoding full-length NLRP6 was codon optimized; His (N); MBP (N); made in house; host or cells: E. coli (DE3)
T1 sequence (P59044 1-892): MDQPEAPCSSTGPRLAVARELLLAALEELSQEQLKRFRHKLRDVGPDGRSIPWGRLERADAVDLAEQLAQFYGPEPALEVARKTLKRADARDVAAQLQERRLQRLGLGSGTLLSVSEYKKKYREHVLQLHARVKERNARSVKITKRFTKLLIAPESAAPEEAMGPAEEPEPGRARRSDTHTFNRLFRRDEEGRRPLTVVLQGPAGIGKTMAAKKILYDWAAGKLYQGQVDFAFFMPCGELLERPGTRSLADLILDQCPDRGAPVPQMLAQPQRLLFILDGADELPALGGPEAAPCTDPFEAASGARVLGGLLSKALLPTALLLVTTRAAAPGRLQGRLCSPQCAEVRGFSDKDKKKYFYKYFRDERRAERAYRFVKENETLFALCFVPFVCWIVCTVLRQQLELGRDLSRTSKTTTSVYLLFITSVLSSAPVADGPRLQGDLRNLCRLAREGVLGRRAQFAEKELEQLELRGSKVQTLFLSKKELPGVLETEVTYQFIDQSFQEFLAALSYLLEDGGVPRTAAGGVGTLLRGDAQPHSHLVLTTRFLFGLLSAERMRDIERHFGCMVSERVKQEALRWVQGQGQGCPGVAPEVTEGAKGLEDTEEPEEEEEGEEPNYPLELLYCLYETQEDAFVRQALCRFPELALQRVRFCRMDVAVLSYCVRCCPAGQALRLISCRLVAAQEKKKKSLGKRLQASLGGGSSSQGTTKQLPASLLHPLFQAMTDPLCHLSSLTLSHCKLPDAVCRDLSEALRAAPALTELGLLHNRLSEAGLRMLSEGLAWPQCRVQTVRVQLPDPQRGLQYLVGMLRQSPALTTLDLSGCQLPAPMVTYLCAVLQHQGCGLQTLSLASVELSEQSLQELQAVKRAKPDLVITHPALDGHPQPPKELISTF
Assay: Biolayer interferometry (BLI) binding of peptides to recombinant NLRP6
Conditions: 30 °C, PBS with 0.01% Tween-20
Experimental: DNA encoding full-length NLRP6 was codon optimized and chemically synthesized by Genewiz (Soochow, China). The DNA sequence was subcloned into NdeI-XhoI sites of a pDB-His-MBP vector (kindly given by Pro. Chenggui Han, China Agricultural University, Beijing, China). Recombinant NLRP6 protein was expressed and purified following previous reports, with slight modifications. Briefly, the protein was expressed in E. coli (DE3) at 16 °C with 0.5 mM IPTG induction overnight. Then, the protein was purified by Ni affinity and gel filtration chromatography. The p85α WT and p85α mutant sequences were chemically synthesized and subcloned into BamHI-XhoI sites of a pGEX-6P-1 plasmid by GenScript (Nanjing, China). The E. coli (DE3) transformed with the plasmids were grown in LB medium at 37 °C. The culture medium was supplemented with 0.5 mM IPTG followed by incubation at 16 °C for 16–18 h. […] The protein extinction coefficient was calculated by ProtParam, and the protein concentration was determined by the ultraviolet spectrophotometry method.
Eleven α-helical peptides were synthesized (Supplementary Data 7). […] The interaction between the peptides and NLRP6 was determined by BLI using an Octet Red 96 instrument (FortéBio, CA, USA). […] Responses (nanometre shift) were calculated using data that were double reference subtracted using reference wells and nonspecific binding of the biosensor to the analyte. […]

## CC[C@H](C)[C@H](NC(=O)[C@H](C)NC(=O)[C@H](CCC(=O)O)NC(=O)[C@@H](NC(=O)[C@H](CC(C)C)NC(=O)[C@H](CCCCN)NC(=O)[C@@H](NC(=O)[C@H](CC(C)C)NC(=O)[C@H](CC(C)C)NC(=O)[C@@H]1CCCN1C(=O)[C@@H]1CCCN1)[C@@H](C)CC)C(C)C)C(=O)N[C@@H](CCC(=O)O)C(=O)N[C@@H](CCCCN)C(=O)N[C@@H](CCCCN)C(=O)NCC(=O)O [Pep4]
  binding to NLRP6 (in words): could bind with NLRP6
